Patent US20090130691A1, “SCREENING PROTEINASE MODULATORS USING A CHIMERIC PROTEIN AND SKI-I PROPROTEIN CONVERTASE SUBSTRATES AND INHIBITORS” (Institut de Recherches Cliniques de Montreal, priority 2005, published 2009)

Molecular target: endogenous Furin-like PCs
Experiment: cell-based or functional assay

B1: dec-YISRRLL-cmk (peptide)
peptide: YISRRLL
modifications: not checked
Q: Which inhibition of proPDGF-A processing in HEK293 cells (Western blot of media) does the source give for B1 here?
A: The inhibition of proPDGF-A processing in HEK293 cells (Western blot of media) was over 100 µM.
